Earlier results in patent publication US10294298B2, “Human PAC1 antibodies” (AMGEN INC., priority 2013, dated 2019).

Sequences of proteins named here, by UniProt entry; tags and fusion partners are left off. Residues count along the entry.
UniProt P32241, 31-457: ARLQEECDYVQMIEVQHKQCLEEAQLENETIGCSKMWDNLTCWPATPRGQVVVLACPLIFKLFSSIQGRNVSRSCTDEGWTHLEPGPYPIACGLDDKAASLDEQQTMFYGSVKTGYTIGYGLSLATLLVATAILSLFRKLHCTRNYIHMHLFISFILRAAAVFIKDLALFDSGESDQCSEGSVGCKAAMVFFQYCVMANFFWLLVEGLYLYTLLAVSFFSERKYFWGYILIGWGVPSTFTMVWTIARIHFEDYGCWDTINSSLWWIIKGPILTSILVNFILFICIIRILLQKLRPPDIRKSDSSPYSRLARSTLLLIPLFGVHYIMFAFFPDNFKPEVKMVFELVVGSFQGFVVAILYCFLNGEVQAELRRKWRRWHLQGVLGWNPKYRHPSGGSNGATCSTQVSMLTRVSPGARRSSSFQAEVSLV

Molecular target: VPAC1 (Homo sapiens, UniProt P32241)
Conditions: receptor agonist; background table

EC50: 0.02 nM
Substance: VIP: vasoactive intestinal polypeptide, endogenous agonist
